Laboratory results as given in ChEMBL document CHEMBL1135602 (J Med Chem, 2002).

The chains behind the UniProt entries cited, without tags or fusion partners. Where a name states a change or a piece, a line headed by the entry shows the natural chain unless it says otherwise.
UniProt P13922: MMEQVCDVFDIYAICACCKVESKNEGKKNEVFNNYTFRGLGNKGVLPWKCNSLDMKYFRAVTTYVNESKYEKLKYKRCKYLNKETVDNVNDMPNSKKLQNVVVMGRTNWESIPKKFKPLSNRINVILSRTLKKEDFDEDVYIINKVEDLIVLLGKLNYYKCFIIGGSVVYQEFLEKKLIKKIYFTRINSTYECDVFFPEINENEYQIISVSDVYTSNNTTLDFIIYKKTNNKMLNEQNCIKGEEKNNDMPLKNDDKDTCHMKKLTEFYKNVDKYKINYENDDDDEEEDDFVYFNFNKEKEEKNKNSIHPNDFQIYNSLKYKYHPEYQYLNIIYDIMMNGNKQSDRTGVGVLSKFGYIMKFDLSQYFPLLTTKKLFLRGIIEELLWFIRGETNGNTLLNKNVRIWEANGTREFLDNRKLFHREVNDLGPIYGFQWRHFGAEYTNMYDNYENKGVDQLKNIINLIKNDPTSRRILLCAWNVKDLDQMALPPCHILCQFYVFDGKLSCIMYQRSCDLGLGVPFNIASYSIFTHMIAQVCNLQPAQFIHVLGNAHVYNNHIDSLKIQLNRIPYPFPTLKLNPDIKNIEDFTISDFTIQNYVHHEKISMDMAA

How the values were obtained:
[1] = target: Bifunctional dihydrofolate reductase-thymidylate synthase (Plasmodium falciparum K1) (UniProt P13922); experiment: Inhibition of Plasmodium falciparum wild-type dihydrofolate reductase (DHFR) relative to Pyrimethamine.
[2] = system: Plasmodium falciparum; experiment: IC50 ratio against Plasmodium falciparum K1CB1/TM4; type: functional

CCc1nc(N)nc(N)c1-c1ccc(OCc2ccc(Cl)cc2Cl)c(OC)c1
Relative activity [1]: 1.7 | Ratio [2]: >14
